Assay: Phase 2 study: adverse events on treatment
Assay type: in vivo, human
Description: Diagnosis of primary, post-essential thrombocythemia, or post-polycythemia vera MF was required; other eligibility criteria included measurable splenomegaly (by magnetic resonance imaging [MRI]), active MF-related systemic symptoms and platelet count ≥75×10^9/L. Primary endpoints were: spleen response rate (% achieving ≥35% spleen volume reduction [SVR] by MRI at week 24); and symptom response rate (% achieving ≥50% reduction in total symptom score [TSS] per the Myelofibrosis Symptom Assessment Form (MFSAF) v2 at week 24). Key secondary endpoints included safety, overall survival (OS), treatment response, molecular response, and pharmacokinetic and pharmacodynamic relationships.

For “DNA, d(3′-amino-3′-deoxy-P-thio) (T-A-G-G-G-T-T-A-G-A-C-A-A), 5′-[O-[2-hydroxy-3-(hexadecanoylamino)propyl] phosphorothioate], sodium salt (1:13) [imetelstat sodium]”, which “Grade 3/4 neutropenia” value (9.4 mg/kg) is on record?
Its value is 34%.

And the “Grade 3/4 thrombocytopenia” value (9.4 mg/kg)?
Its value is 42%.

What about the “anemia, adverse event (all grades)” value (9.4 mg/kg) of the same substance?
Its value is 44%.

What about the “nausea, adverse event (all grades)” value (9.4 mg/kg) of the same substance?
The value was 34%.

What about the “neutropenia, adverse event (all grades)” value (9.4 mg/kg) of the same substance?
Its value is 36%.

And the “thrombocytopenia, adverse event (all grades)” value (9.4 mg/kg)?
Its value is 49%.

What about the “time to resolution of most cytopenias” value (both arms) of the same substance?
Its value is at most 4 weeks.

What about the “Grade 3/4 LFT elevations” value (on study, both arms) of the same substance?
The value was 7 patients.

— patent US20200063214A1, “METHODS OF IDENTIFYING PATIENTS LIKELY TO BENEFIT FROM TREATMENT WITH A TELOMERASE INHIBITOR” (Geron Corporation, priority 2018, published 2020)
